Measured values taken from US20040166060A1, “Liposomal encapsulation of alpha particle emittors and uses thereof” (Sloan Kettering Institute for Cancer Research, priority 2000, published 2004).

Test system: ovarian carcinoma
Set-up: species or system Balb/c nu/nu mice
Details: mouse, in vivo
Description: In more than 40 mouse experiments, intraperitoneal injection of 5×10^6 previously passaged SKOV3 cells in 4-6 week old female Balb/c nu/nu mice has yielded 100% tumor take. By three weeks, discrete, mm-sized tumor nodules are observed around the spleen; in many cases such nodules are also found on the surface of the GI tract and liver. By four weeks discrete tumor nodules are replaced by contiguous masses of tumor around the spleen, GI tract and liver. At this time ascites fluid is also observed.
MicroPET and MRI-based pre-clinical biodistribution and localization data have been obtained using ^86Y-Herceptin (HER) antibody (anti-HER2/neu) against ovarian carcinoma (38-39). […] Optical images of FITC-Herceptin have also been obtained to provide a high resolution assessment of Herceptin targeting as shown in FIG. 19. This methodology is also used to evaluate tumor targeting of liposomes immunolabeled with Herceptin.

With “^86Y-Herceptin: 86Y-labeled Herceptin (HER) antibody (anti-HER2/neu)” the localization was “localize to sites of disease with minimal normal organ uptake”.
